Assay results from ChEMBL document CHEMBL1127235, “1,1-diphenyl-3-dialkylamino-1-silacyclopentane derivatives: A new class of potent and selective 5-HT2A antagonists” (Bioorg Med Chem Lett, 1994).

Amino acid sequences for entries named in this document (tags omitted).
UniProt P14842, whole entry: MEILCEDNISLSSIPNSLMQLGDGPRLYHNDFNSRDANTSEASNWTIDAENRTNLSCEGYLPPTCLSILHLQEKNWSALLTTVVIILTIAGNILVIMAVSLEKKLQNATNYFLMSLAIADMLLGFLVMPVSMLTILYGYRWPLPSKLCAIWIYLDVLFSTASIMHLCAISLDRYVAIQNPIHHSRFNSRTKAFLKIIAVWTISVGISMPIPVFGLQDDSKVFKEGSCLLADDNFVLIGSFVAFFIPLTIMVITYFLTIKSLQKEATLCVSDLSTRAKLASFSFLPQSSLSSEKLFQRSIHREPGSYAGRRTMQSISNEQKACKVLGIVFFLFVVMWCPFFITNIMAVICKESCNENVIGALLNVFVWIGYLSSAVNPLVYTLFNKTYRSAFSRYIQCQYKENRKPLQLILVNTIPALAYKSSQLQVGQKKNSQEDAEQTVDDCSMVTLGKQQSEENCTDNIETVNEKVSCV

Molecular target: 5-hydroxytryptamine receptor 2A (Rattus norvegicus, UniProt P14842)
Test: In vitro binding affinity towards serotonin 5-HT2A receptor in rat cortical membranes using [3H]ketanserin as radioligand
Format: cell membranes

**Q.** Which IC50 does the source give for `Cc1nc2sccn2c(=O)c1CCN1CCC(=C(c2ccc(F)cc2)c2ccc(F)cc2)CC1` [RITANSERIN] here?
**A.** The IC50 was 1.7 nM.
